This assay deals with T1, elongation initiation factor 4E (eIF4E) (UniProt P06730 2-217, limits assumed).
T1 construct: mature; In SPR it was amine-coupled to a CM5 chip with m7GTP present; also called full-length eIF4E; GS-eIF4E (biotinylated form used only for phage panning)
Nature of the assay: SPR (Biacore T100), eIF4E immobilised on CM5 chip, peptide as analyte. The protocol:
Running buffer consisted of 10 mM Hepes pH 7.6, 0.15 M NaCl, and 0.1% Tween20. Stock/DMSO diluted peptide solutions were diluted into 1.03× running buffer to make a peptide solution with 3% DMSO final concentration. […] Surface Plasmon resonance experiments were performed on a Biacore T100 machine.
Pure eIF4E was immnobilized on a CM5 sensor chip. The CM5 chip was conditioned with a 6 s injection of 100 mM HCL, followed by a 6 s injection of 0.1% SDS and completed with a 6 s injection of 50 mM NaOH at a flow rate of 100 μl/min. Activation of the sensor chip surface was performed with a mixture of NHS (115 mg ml⁻¹) and EDC (750 mg ml⁻¹) for 7 min at 10 μl min⁻¹. […]
Six buffer blanks were first injected to equilibrate the instrument fully and then a solvent correction curve was performed followed by a further two blank injections. […] Using a flow rate of 50 μl/min, compounds were injected for 60 s and dissociation was monitored for 180 s. […] Kds were determined using the BiaEvaluation software (Biacore) and calculated from both the response of the eIF4E coated CM5 chips at equilibrium and also kinetically from the dissociation and association phase data for each of the peptides. […] Each individual peptide Kd was determined from three separate titrations. […]
Background: SPR reads the build-up and loss of mass on a sensor chip optically.

The chains behind the UniProt entries cited, without tags or fusion partners. Residues count along the entry.
UniProt P06730, 2-217 limits assumed: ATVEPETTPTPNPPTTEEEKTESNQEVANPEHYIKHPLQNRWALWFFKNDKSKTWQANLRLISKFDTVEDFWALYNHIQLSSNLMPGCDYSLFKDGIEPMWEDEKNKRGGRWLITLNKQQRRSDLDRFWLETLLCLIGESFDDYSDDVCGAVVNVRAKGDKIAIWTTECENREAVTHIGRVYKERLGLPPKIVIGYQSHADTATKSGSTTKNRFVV

Usually Kd stands for the constant that tells how readily two partners part at equilibrium. A high value points to lower affinity.

B1: EE-12 (CEMGFFQDCG) (peptide)
peptide: CEMGFFQDCG
modifications: free N-terminal amine; C-terminal amide; disulphide bond between the two Cys (residues 1 and 9 of this peptide)
notes: EE-02 without A1
As for B1, binding was put at a Kd of 77 nM. This lies in the double-digit nanomolar range.

The values above are taken from patent US20220242906A1 (AGENCY FOR SCIENCE TECHNOLOGY AND RESEARCH, published 2022).
